Values of other authors as cited in patent US7579350B2, “Scaffolds for α-helix mimicry” (The Scripps Research Institute, priority 2005, dated 2009).

Amino acid sequences for entries named in this document (tags omitted).
UniProt Q07817, whole entry, species assumed: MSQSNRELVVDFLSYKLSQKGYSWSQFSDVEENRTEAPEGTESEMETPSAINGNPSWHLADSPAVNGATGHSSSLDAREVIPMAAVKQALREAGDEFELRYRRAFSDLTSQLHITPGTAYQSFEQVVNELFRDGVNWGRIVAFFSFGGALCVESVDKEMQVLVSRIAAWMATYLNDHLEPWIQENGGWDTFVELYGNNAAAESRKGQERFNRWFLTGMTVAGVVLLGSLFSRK

Molecular target: Bcl-xL (Homo sapiens, UniProt Q07817)
Conditions: Bak aa 72 to 87 bound to Bcl-xL; cited from earlier work

16 residue BH3 domain peptide from Bak: 16 residue BH3 domain peptide from Bak (aa 72 to 87) that binds Bcl-xL in a helical conformation
Kd: ~0.3 µM
